Sequences of proteins named here, by UniProt entry; tags and fusion partners are left off. Residues count along the entry.
UniProt P46151, 1-301: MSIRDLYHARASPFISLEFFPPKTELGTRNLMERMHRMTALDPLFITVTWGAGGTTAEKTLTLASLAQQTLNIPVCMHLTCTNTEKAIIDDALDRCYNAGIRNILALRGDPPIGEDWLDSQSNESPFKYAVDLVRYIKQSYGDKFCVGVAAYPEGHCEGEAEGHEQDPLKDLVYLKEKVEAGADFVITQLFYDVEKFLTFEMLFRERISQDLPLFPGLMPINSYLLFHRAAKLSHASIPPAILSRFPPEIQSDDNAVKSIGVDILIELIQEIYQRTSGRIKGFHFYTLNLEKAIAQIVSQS

According to article PMC5995969, “Structural basis for the regulation of human 5,10-methylenetetrahydrofolate reductase by phosphorylation and S-adenosylmethionine inhibition” (Nature Communications, 2018):

Biological target: MET12 (ScMET12) (Saccharomyces cerevisiae, UniProt P46151)

Cc1cc2nc3c(=O)[nH]c(=O)nc-3n(C[C@H](O)[C@H](O)[C@H](O)COP(=O)(O)OP(=O)(O)OC[C@H]3O[C@@H](n4cnc5c(N)ncnc54)[C@H](O)[C@@H]3O)c2cc1C [FAD]
1.56 Å crystal structure: blocked by a crystal packing interaction from a nearby symmetry mate, making π–π stacking interactions with the FAD ligand
